## AlphaSeq binding of Ab-14 heavy chain variants to a spike HR2 peptide

All variants were tested on one target, the spike HR2 peptide PDVDLGDISGINAS (SARS-CoV-2).

The variants keep the light chain, the linker and the frameworks of Ab-14 (scFv order VH, a 15-residue (Gly4Ser)3 linker, VL).
VH: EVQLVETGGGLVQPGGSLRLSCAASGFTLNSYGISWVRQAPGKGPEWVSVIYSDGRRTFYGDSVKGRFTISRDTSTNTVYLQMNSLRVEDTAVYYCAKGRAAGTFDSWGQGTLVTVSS
VL: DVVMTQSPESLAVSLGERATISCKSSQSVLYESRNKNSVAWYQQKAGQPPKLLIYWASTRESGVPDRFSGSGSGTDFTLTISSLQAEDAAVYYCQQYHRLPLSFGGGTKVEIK

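The parent was found by panning a naive human phage display library on the peptide. These sequences belong to a second round, designed from the earlier measurements on random variants of the parent. Several design methods are mixed in this list. Affinity was read by AlphaSeq, a pooled yeast mating assay with surface-displayed partners. The frequency of each diploid, read from paired DNA barcodes, reflects how well the two displayed proteins bind. Read counts were normalised to the haploid input and turned into Kd by a linear fit to BCL2-family pairs of known affinity, for each replicate. Each pool was mated in six replicate cultures.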

Variants are written as CDR1, CDR2 and CDR3 of the heavy chain (limits as in the source). Parent: GFTLNSYGIS, VIYSDGRRTFYGDSVK, GRAAGTFDS.
Variants here have more than six changes.
Each Kd is an estimate from the mating assay, the geometric mean of the replicates in which the pair was seen; lower is stronger.
"nd" marks a missing value. The strain was present, yet no cells mated with the target were sequenced in any replicate, which points to weak or no binding.
Values of this round are not directly comparable with the first-round values of the same sequences.
As a blank, each scFv also met three strains without target: over all heavy chain designs, 1% of these pairings were detected, typically at 120 nM and seldom below 7.0 nM. Also given: how often the same scFv was detected with the empty control strains.
In the paper, a design with two or fewer of six values counts as a poor binder.

| CDR-H1 | CDR-H2 | CDR-H3 | apparent Kd | replicates with signal | empty controls |
|---|---|---|---|---|---|
| GFDLDEYGIS | VIYADGRRTAYTDSVK | GGNAGTFDV | 390 pM | 6/6 | 0/18 |
| GYDLVEYGIS | VIYADGIRTVVSNDVK | GNVAGTIFV | nd | 0/6 | 0/18 |
| GFQLDEYGIS | VIYADGMRTFYADSVK | GEVAGTFDV | 670 pM | 6/6 | 0/18 |
| GFDLNEYGIS | VIYADGVRTAYSDSVK | GENAGTFDL | 630 pM | 6/6 | 0/18 |
| GFDLEDYGIS | VIYADGKRTAYADSVK | GQNAGTFDV | 2.7 nM | 6/6 | 0/18 |
| GFDLNEYGIS | VIYADGRRTAYADSVK | GTNGGTFDV | 2.4 nM | 6/6 | 0/18 |
| GFNLEDYGIS | VIYADGHRASYVESVK | GHLAGTFDE | 710 pM | 6/6 | 0/18 |
| GFDLNEYGIS | VIYADGVRKAYADSVK | GGNAGTFDV | 190 pM | 6/6 | 0/18 |
| GFDLNEYGIS | VIYADGKRTAYVDSVK | GNVAGTFDT | 270 pM | 6/6 | 0/18 |
| GFDLNEYGIS | VIYADGSRTAYADSVK | GNTAGTFDV | 60 pM | 6/6 | 0/18 |
| GFDLNEYGIS | VIYADGVRTAYSDSVK | GANAGTFDI | 1.2 nM | 6/6 | 0/18 |
| GFDLNEYGIS | VIYADGRRTFYADSVK | GGEAGTFNM | 620 pM | 6/6 | 0/18 |
| GFDLEEYGVS | VIYADGNRSQYIDNVK | GIIGDNVSI | nd | 0/6 | 2/18 |
| GFDLGEYGIS | VIYADGSRVAYAQKVK | GKNDAISSV | nd | 0/6 | 0/18 |
| GFDLDEYGIS | VIYADGRRTFYQDSVK | GQIAGTFDQ | 840 pM | 6/6 | 1/18 |
| GFGIGEYGIS | VIYADGRRTFYKDDVK | GNGIVAGVD | nd | 0/6 | 0/18 |
| GSDLNEYGIS | VIYADGKRSYYTDAVK | GGYNIGASV | nd | 0/6 | 0/18 |
| GFDLNEYGIS | VIYADGRRTFYADSVK | GSEAGTFNM | 190 pM | 6/6 | 1/18 |
| GFDLNEYGIS | VIYADGRRTFYSDSVK | GEIAGTFDI | 300 pM | 6/6 | 0/18 |
| GFDLNEYGIS | VIYADGRRTFYSDSVK | GQIAGTFDQ | 2.5 nM | 6/6 | 0/18 |
| GFDINEYGIS | VIYADGMRTKYSESVK | GTVDEDFNG | nd | 0/6 | 0/18 |
| GFDLNEYGIS | VIYADGSRTAYSDSVK | GENAGTFDL | 590 pM | 6/6 | 0/18 |
| GFNLNEYGIS | VIYADGRRTFYTDDVK | GEEAGTFDL | 970 pM | 6/6 | 0/18 |
| GFDLDEYGIS | VIYADGRRTAYADDVK | GGNAGTFDV | 7.4 nM | 5/6 | 0/18 |
| GFNIEEYGIS | VIYADGRRTAYAEPVK | GDSGGTIDT | nd | 0/6 | 0/18 |
| GFDLNEYGIS | VIYADGVRTYYADDVK | GNQAGTFDV | 910 pM | 6/6 | 0/18 |
| GFDLDEYGIS | VIYADGRRVVYQDKVK | GELAGTVDQ | nd | 0/6 | 0/18 |
| GFDLNEYGIS | VIYADGVRTFYADSVK | GEVAGTFDQ | 3.7 nM | 6/6 | 0/18 |
| GFDLDEYGIS | VIYADGRRTFYSDSVK | GSTAGTFDV | 260 pM | 6/6 | 1/18 |
| GFDLNEYGIS | VIYADGRRTAYTDSVK | GANAGTFDV | 1.3 nM | 6/6 | 1/18 |
| GFDLNEYGIS | VIYADGRRTFYSDSVK | GTIGGTFDI | 3.6 nM | 6/6 | 0/18 |
| GFNLDEMGIS | VIYADGKRQVYADSVK | GHFGGNKLN | nd | 0/6 | 2/18 |
| GFDLNEYGIS | VIYADGMRTAYSDKVK | GENAGTFDV | 48 pM | 6/6 | 0/18 |
| GQDLDEYGVS | VIYADGQRTQYTNDVK | GLYSGAFII | nd | 0/6 | 0/18 |
| GFDLNEYGIS | VIYADGKRTAYADSVK | GNQAGTFDV | 800 pM | 5/6 | 0/18 |
| GFDIEEYGIS | VIYADGVRTAYSQNFK | VGNTFALDI | nd | 0/6 | 0/18 |
| GFDLNEYGIS | VIYADGRRTYYIDSVK | GEIAGTFDS | 92 pM | 6/6 | 0/18 |
| GFDLNEYGIS | VIYADGVRTFYTDSVK | GANAGTFDS | 29 nM | 6/6 | 1/18 |
| GFDLDEYGIS | VIYADGMRTFYADSVK | GNIAGTFDA | 190 pM | 6/6 | 0/18 |
| GFDLNEYGIS | VIYADGKRTAYADDVK | GNTAGTFDV | 450 pM | 6/6 | 0/18 |
| GFDLNNYGIS | VIYADGLRVEYENKFK | GDVAGTFDS | 3.7 nM | 6/6 | 0/18 |
| GEDLQEYGIS | VIYADGFRQSYSEKVK | GQHGGFLVK | nd | 0/6 | 0/18 |
| GFDLDEYGIS | VIYADGKRTAYSDSVK | GNTAGTFDQ | 480 pM | 6/6 | 0/18 |
| GFDLNEYGIS | VIYADGMRTFYADSVK | GTNAGTFDL | 280 pM | 6/6 | 0/18 |
| GFDLNEYGIS | VIYADGMRTFYADSVK | GTNAGTFDI | 1.5 nM | 6/6 | 0/18 |
| GFNLNEYGIS | VIYADGRRTFYADSVK | GQTAGTFDV | 1.0 nM | 6/6 | 0/18 |
| GFNLNEYGIS | VIYADGMRTFYTDSVK | GETAGTFDK | 310 pM | 6/6 | 0/18 |
| GFDLEEYGIS | VIYADGLRTYYDDNFK | GWNSGTIFV | nd | 0/6 | 0/18 |
| GDILEDYGIS | VIYADGRRRAYQENVK | GEYAGYFDV | 190 nM | 3/6 | 1/18 |
| GFDLNEYGIS | VIYADGVRTAYSDSVK | GQNAGTFDL | 460 pM | 6/6 | 0/18 |
| GFDLDEYGIS | VIYADGQRTYYADSVK | GENAGTFDV | 130 pM | 2/6 | 0/18 |
| GFDLNEYGIS | VIYADGRRTFYADSVK | GEIAGTFDL | 510 pM | 6/6 | 0/18 |
| GKGLDEYGVS | VIYADGKRHQYAEDVK | GGLAGQFDV | nd | 0/6 | 0/18 |
| GFDLNEYGIS | VIYADGVRQAYADSVK | GQNAGTFDV | 72 pM | 6/6 | 0/18 |
| GFDLNEYGIS | VIYADGRRTFYSDSVK | GQTGGTFDV | nd | 0/6 | 0/18 |
| GFDLEEYGIS | VIYADGLRQYYKDNFK | GWNDGTIAV | 110 µM | 1/6 | 1/18 |
| GFDLNEYGIS | VIYADGSRVAYANNVK | GKNNAIVSN | 39 nM | 1/6 | 1/18 |
| GFNLDEYGIS | VIYADGRRTFYADSVK | GEVAGTFDI | 400 pM | 6/6 | 1/18 |
| GFDLNEYGIS | VIYADGVRKAYSDSVK | GQNAGTFDV | 440 pM | 6/6 | 0/18 |
| GFDLDEYGIS | VIYADGKRTAYTDSVK | GNVAGTFDQ | 200 pM | 6/6 | 0/18 |
| GFDLNEYGIS | VIYADGQRTAYSDSVK | GETAGTFDL | 420 pM | 6/6 | 2/18 |
| GFDLNEYGIS | VIYADGQRKSYADSFK | GRWSGQVIM | 9.3 µM | 2/6 | 1/18 |
| GFDLDEYGIS | VIYADGQRTAYADSVK | GSNAGTFDM | 2.0 nM | 6/6 | 0/18 |
| GFDLDEYGIS | VIYADGQRTAYADSVK | GQVAGTFDV | 240 pM | 6/6 | 0/18 |
| GQDINEYGIS | VIYADGLRKAYSQQVK | GQNLGDVEV | 310 nM | 2/6 | 2/18 |
| GFDLDEYGIS | VIYADGMRTAYIDSVK | GNQAGTFDL | 560 pM | 6/6 | 0/18 |
| GFDLNEYGIS | VIYADGKRTAYVDSVK | GNVAGTFDM | 260 pM | 6/6 | 0/18 |
| GFEINSYGIS | VIYSDGRRLFYADSVK | HEAAGTFHS | nd | 0/6 | 0/18 |
| GFDLNEYGIS | VIYADGRRTFYSDSVK | GHIAGTFDQ | 360 pM | 6/6 | 0/18 |
| GFQLDEYGIS | VIYADGVRSSYVDDVK | GEITSAFSV | 56 nM | 6/6 | 1/18 |
| GDDLEEYGIS | VIYADGMRTYYSDQVK | GNVNGTFFD | nd | 0/6 | 0/18 |
| GFDLNEYGIS | VIYADGSRTFYSDSVK | GNTAGTFDS | 500 pM | 6/6 | 0/18 |
| GFDLDEYGIS | VIYADGRRTFYADSVK | GQAAGTFDQ | 790 pM | 6/6 | 1/18 |

Extract of 5 entries:

{"CDR-H1": "GFDLNEYGIS", "CDR-H2": "VIYADGQRKSYADSFK", "CDR-H3": "GRWSGQVIM", "apparent Kd": "9.3 µM", "replicates with signal": "2/6", "empty controls": "1/18"}
{"CDR-H1": "GFNLNEYGIS", "CDR-H2": "VIYADGRRTFYTDDVK", "CDR-H3": "GEEAGTFDL", "apparent Kd": "970 pM", "replicates with signal": "6/6", "empty controls": "0/18"}
{"CDR-H1": "GFDIEEYGIS", "CDR-H2": "VIYADGVRTAYSQNFK", "CDR-H3": "VGNTFALDI", "apparent Kd": "nd", "replicates with signal": "0/6", "empty controls": "0/18"}
{"CDR-H1": "GFGIGEYGIS", "CDR-H2": "VIYADGRRTFYKDDVK", "CDR-H3": "GNGIVAGVD", "apparent Kd": "nd", "replicates with signal": "0/6", "empty controls": "0/18"}
{"CDR-H1": "GFDLNEYGIS", "CDR-H2": "VIYADGVRTAYSDSVK", "CDR-H3": "GANAGTFDI", "apparent Kd": "1.2 nM", "replicates with signal": "6/6", "empty controls": "0/18"}

The measurements come from Li et al. 2023 (doi:10.1038/s41467-023-39022-2) through the FLAb antibody collection.